For the data set the following is noted: starting concentration 500 μM.

Results on one substance are retold here after US10724010B2, “Recombinantly engineered cells expressing chlorite dismutase and methods for using same in cell culture” (The Regents of the University of California, priority 2013, dated 2020).

As to chlorite, where the note is “after six hours, cultures of KR260, KR3557 or both, PYE, 30° C”, the “chlorite still present in each culture” value is roughly 0.3 mM. Further, where the note is “KR260 vs KR3557 vs mixed culture”, the “rate of chlorite disappearance in the three cultures” value is listed as “similar”.
